Data reported in patent publication US5990096A, “Formulations containing hyaluronic acid” (priority 1992, dated 1999).

Conditions: human, in vivo

- Ibuprofen blood level (0.25 h): 0.09
- Ibuprofen blood level (0.5 h): 0.09
- Ibuprofen blood level (6 h): 0.09
Structure (SMILES): CC(C)Cc1ccc(C(C)C(=O)O)cc1 (stereo not drawn) [PROFLEX]

Like-named read-outs stand apart in the source and are kept apart here.
